# Assays:
# Format in all cases: toxicity, cell-based
# Fibroblast = assay: Multiplex assay against human fibroblast
# HEK-293T = assay: Multiplex assay against HEK293T; settings: human
# U2OS = assay: Multiplex assay against U2OS; settings: human, 0 h, 10 µM, compound concentration 10 uM, replicate 1
# [1] = 0 h, 1 µM, compound concentration 1 uM, replicate 1
# [2] = 0 h, 1 µM, compound concentration 1 uM, replicate 2
# [3] = 0 h, 10 µM, compound concentration 10 uM, replicate 2
# [4] = 12 h, 1 µM, compound concentration 1 uM, replicate 1
# [5] = 12 h, 10 µM, compound concentration 10 uM, replicate 2
# [6] = 24 h, 1 µM, compound concentration 1 uM, replicate 1
# [7] = 24 h, 1 µM, compound concentration 1 uM, replicate 2
# [8] = 24 h, 10 µM, compound concentration 10 uM, replicate 1
# [9] = 24 h, 10 µM, compound concentration 10 uM, replicate 2
# [10] = 48 h, 1 µM, compound concentration 1 uM, replicate 1
# [11] = 48 h, 1 µM, compound concentration 1 uM, replicate 2
# [12] = 48 h, 10 µM, compound concentration 10 uM, replicate 1
# [13] = 48 h, 10 µM, compound concentration 10 uM, replicate 2
smiles,measurement,setting,value
CNC[C@H](O)c1ccc(O)c(O)c1 [EPINEPHRINE],Total Cell Count,Fibroblast; [1],123
same,Total Cell Count,Fibroblast; [2],150
same,Total Cell Count,Fibroblast; [3],146
same,Total Cell Count,Fibroblast; [4],135
same,Total Cell Count,"Fibroblast; 12 h, 1 µM, compound concentration 1 uM, replicate 2",119
same,Total Cell Count,Fibroblast; [5],142
same,Total Cell Count,Fibroblast; [6],132
same,Total Cell Count,Fibroblast; [7],126
same,Total Cell Count,Fibroblast; [8],169
same,Total Cell Count,Fibroblast; [9],143
same,Total Cell Count,Fibroblast; [10],135
same,Total Cell Count,Fibroblast; [11],126
same,Total Cell Count,Fibroblast; [12],168
same,Total Cell Count,Fibroblast; [13],153
same,Total Cell Count,HEK-293T; [1],314
same,Total Cell Count,HEK-293T; [2],249
same,Total Cell Count,"HEK-293T; 0 h, 10 µM, compound concentration 10 uM, replicate 1",228
same,Total Cell Count,HEK-293T; [3],218
same,Total Cell Count,HEK-293T; [4],475
same,Total Cell Count,"HEK-293T; 12 h, 10 µM, compound concentration 10 uM, replicate 1",272
same,Total Cell Count,HEK-293T; [5],244
same,Total Cell Count,HEK-293T; [6],648
same,Total Cell Count,HEK-293T; [7],482
same,Total Cell Count,HEK-293T; [8],315
same,Total Cell Count,HEK-293T; [9],293
same,Total Cell Count,HEK-293T; [10],1107
same,Total Cell Count,HEK-293T; [11],678
same,Total Cell Count,HEK-293T; [12],486
same,Total Cell Count,HEK-293T; [13],312
same,Total Cell Count,U2OS,175
